Values quoted from earlier work as cited in patent publication US8323615B2, “Methods of processing multi-phasic dispersions” (Baxter International Inc., priority 2008, dated 2012).

Columns and labels:
rats = conditions: oral, all at once (acute toxicity), minimal amount reported in the literature
[1] = parts per million by weight; ambient temperature such as 20-25° C.

| SMILES | LD50 (rats) [g/kg body weight] | Sol. (solubility of water in the liquid) [1] [ppm] |
| --- | --- | --- |
| FC(F)(F)c1ccccc1 [1,1,1-trifluorotoluene] | 15 | – |
| CC(F)(Cl)Cl [Genesolv ® 2000 HFC-141b] | – | 420 |
